Literature values as cited in patent US7208580B2, “Atomic structure of the hemalbumin complex and its use in designing therapeutic compounds” (New Century Pharmaceuticals, Inc., priority 2002, dated 2007).

Details: native (unmodified) complex; 'long been established'

activity as an oxygen binding protein: inactive
Substance: native hemalbumin complex: complex of hemin and human serum albumin combined in a 1:1 molar ratio
